Assay results published in PubChem BioAssay AID1259374 (The Scripps Research Institute Molecular Screening Center, 2018).
The entries are a selection whose mix differs from that of the whole data set. The source made the active and inactive calls. No stated cut-off is given here; in the data, active means inhibition above about 50%; inactive means the rest.

Protein sequences, listed by entry. Tags and fused reporters are not part of them.
UniProt O75030, whole entry: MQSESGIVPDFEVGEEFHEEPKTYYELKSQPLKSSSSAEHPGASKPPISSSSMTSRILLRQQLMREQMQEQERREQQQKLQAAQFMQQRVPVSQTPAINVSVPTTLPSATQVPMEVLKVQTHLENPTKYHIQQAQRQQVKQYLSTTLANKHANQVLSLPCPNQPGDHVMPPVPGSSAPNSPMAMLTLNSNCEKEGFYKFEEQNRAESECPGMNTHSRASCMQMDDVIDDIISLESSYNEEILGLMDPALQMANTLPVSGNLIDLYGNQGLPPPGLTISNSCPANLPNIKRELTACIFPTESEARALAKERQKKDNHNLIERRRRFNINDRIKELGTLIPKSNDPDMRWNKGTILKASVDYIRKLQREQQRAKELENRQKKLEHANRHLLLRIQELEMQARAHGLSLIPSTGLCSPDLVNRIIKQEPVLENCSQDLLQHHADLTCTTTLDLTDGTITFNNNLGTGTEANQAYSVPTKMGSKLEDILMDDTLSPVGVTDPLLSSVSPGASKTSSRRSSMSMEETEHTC

These compounds were tested against Microphthalmia-associated transcription factor (Homo sapiens) (UniProt O75030) (assay: MITF inhibitors, primary screen, biochemical, AlphaScreen, human (AID 1259374;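 further: 0% = vehicle wells with protein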)). Conditions: AlphaScreen MITF homodimerization, bead proximity signal; at 2.6 µM; stronger effect = higher value.

| Structure (SMILES) | inhibition |
| --- | --- |
| CCN1CCC(Nc2ccc(Cl)cc2)CC1 | inactive: 3.61% |
| COc1ccc(CCN2CCC(N(Cc3ccco3)C(C)=O)CC2)cc1 | inactive: 8.09% |
| COc1ccc(NC2CCN(CCc3cccs3)CC2)cc1 | inactive: 13.5% |
| O=C(NCC1(N2CCCCC2)CCCCC1)c1cccc([N+](=O)[O-])c1 | inactive: 0.1% |
| O=C(NCC1(N2CCOCC2)CCCCC1)c1cc(=O)[nH]c2ccccc12 | inactive: 4.46% |
| CN1CCN(CCOC(=O)C(O)(c2ccccc2)c2ccccc2)CC1 | inactive: 0.21% |
| COc1ccccc1/C=C/CN1CCN(C(C)=O)CC1 | inactive: -1.89% |
| COc1cc(OC)c(C(=O)NCC2(N(C)C)CCCCC2)cc1OC | inactive: 14% |
| Cc1ccc(C(=O)O)cc1N(CCCl)CCCl | inactive: 12.3% |
| COc1ccc(CN(CCCl)CCCl)cc1Cl | inactive: 14.8% |
| FC(F)(F)Oc1ccc(NC2CCNCC2)cc1 | inactive: 9.93% |
| CCN1CCC(Nc2ccccc2F)CC1 | inactive: 24.9% |
| CCCOc1ccc(C(=O)NCC2(N(C)C)CCCCC2)cc1OC | inactive: -4.84% |
| Cc1cc(C(=O)NCC2(N3CCOCC3)CCCCC2)c2ccccc2n1 | inactive: 1.04% |
| O=C(NCC1(N2CCCCC2)CCCCC1)c1cncc(Br)c1 | inactive: 6.34% |
| CN1CCC(Nc2cccc(F)c2)CC1 | inactive: 22.4% |
| COc1cccc(OC)c1CN1CCC(Nc2ccccc2)CC1 | inactive: -1.08% |
| COc1ccc(C(=O)NCC2(N3CCCCC3)CCCCC2)cc1 | inactive: -1.21% |
| CCCN1CCC(Nc2ccc(OC)c(OC)c2)CC1 | inactive: 16.9% |
| COc1ccc(C(=O)NCC2(N3CCCCC3)CCCCC2)c(OC)c1OC | inactive: -9.28% |
| CC1CN(CCc2ccccc2)CCC1=O (centres undefined) | inactive: 0.76% |
| N#CC1(Nc2ccccc2)CCN(Cc2ccccc2)CC1 | inactive: 7.06% |
| CCOC(=O)N1CCC(Nc2ccc(OC)cc2)CC1 | inactive: 15.7% |

| Structure (SMILES) | inhibition |
| --- | --- |
| CN(CCOC(=O)C(O)(c1ccccc1)c1ccccc1)C(C)(C)C | inactive: 16.8% |
| COc1ccc(NC2CCN(CCc3ccccn3)CC2)cc1 | inactive: 0.31% |
| CCOC(=O)N1CCC(Nc2ccc(F)cc2)CC1 | inactive: -0.41% |
| CN(C)P(=O)(OC(C)(C)C(Cl)(Cl)Cl)SCCCCl (centres undefined) | inactive: -18.4% |
| CCCN1CCC(Nc2ccc(F)cc2)CC1 | inactive: 28.1% |
| O=C1CCN(Cc2ccccc2)CC1 | inactive: -0.31% |
| CC(=O)N1CCc2ccc(N(C(=O)C(C)(C)C)C3CCN(Cc4ccccc4)CC3)cc21 | inactive: 3.25% |
| COc1cccc(CN(CCCl)CCCl)c1 | inactive: 2.88% |
| CCOC(=O)N1CCC(Nc2cccc(C)c2)CC1 | inactive: 3.7% |
| Clc1ccc(NC2CCN(Cc3ccccc3)CC2)cc1 | inactive: 5.53% |
| Fc1cccc(NC2CCN(CCc3ccccc3)CC2)c1 | inactive: 9.85% |
| CCCN1CCC(Nc2ccc(Cl)cc2)CC1 | inactive: -7.46% |
| CN1CCC(Nc2ccccc2Cl)CC1 | inactive: -0.21% |
| CN(C)C1(CNC(=O)c2cc3c(s2)CCC3)CCCCC1 | inactive: 5.12% |
| [C-]#N.[K+].c1ccc2c(c1)OCCOCCOc1ccccc1OCCOCCO2 | inactive: -0.07% |
| CC1CN(Cc2ccccc2)CCC1=O (centres undefined) | inactive: 15.9% |
| CC(C)(C)OC(=O)N1CCC(Nc2ccc(Cl)cc2Cl)CC1 | inactive: -16.8% |
| CN1CCC(Nc2ccccc2F)CC1 | inactive: 21.3% |
| CCN1CCC(Nc2ccc(F)cc2)CC1 | inactive: 35% |
| CCOP(=O)(OCC)SCC(=O)N(CC)CC | inactive: -2.6% |
| O=C(NCC1(N2CCCCC2)CCCCC1)c1ccc([N+](=O)[O-])s1 | inactive: 8.95% |
| CC1CN(C)C(C)CC1Nc1ccccc1 (centres undefined) | inactive: 5.82% |
| O=C(O)C1(Nc2ccccc2)CCN(Cc2ccccc2)CC1 | inactive: 14.4% |

| Structure (SMILES) | inhibition |
| --- | --- |
| CCCOc1ccc(C(=O)NCC2(N(C)C)CCCCC2)cc1 | inactive: -3.48% |
| CC(C)(C)OC(=O)N1CCC(Nc2ccc(F)cc2F)CC1 | inactive: -4.42% |
| CN1CCC(Nc2ccc(F)c(Cl)c2)CC1 | inactive: 29.9% |
| Fc1ccc(NC2CCN(Cc3ccccc3)CC2)cc1F | inactive: 14.5% |
| COc1ccc(NC2CCN(Cc3ccncc3)CC2)cc1 | inactive: 16.9% |
| CN1CCC(Nc2ccc(Cl)cc2)CC1 | inactive: 21.3% |
| CN(C)C1(CNC(=O)c2cc(=O)[nH]c3ccccc23)CCCCC1 | inactive: -1.31% |
| COc1cc(OC)cc(C(=O)NCC2(N3CCOCC3)CCCCC2)c1 | inactive: 0.3% |
| CCC(CO)(C(=O)OC1CN2CCC1CC2)c1ccccc1 (centres undefined) | inactive: 5.79% |
| NC(=O)C1(Nc2ccccc2)CCN(Cc2ccccc2)CC1 | inactive: 8.23% |
| COc1ccc(C(=O)NCC2(N3CCOCC3)CCCCC2)cc1OC | inactive: -2.38% |
| COc1cc(C(=O)NCC2(N3CCOCC3)CCCCC2)cc(OC)c1C | inactive: 11% |
| CN1CCC(Nc2ccc(F)cc2)CC1 | inactive: 29.6% |
| O=C1CCN(CCc2ccccc2)CC1 | inactive: 2.29% |
| CCOC(=O)N1CCC(Nc2ccc(Cl)cc2)CC1 | inactive: -10.7% |
| CCOC(=O)N1CCC(Nc2ccc(C)cc2)CC1 | inactive: 8.5% |
| O=C(NCC1(N2CCOCC2)CCCCC1)c1ccc2c(c1)OCO2 | inactive: -0.04% |
| COc1cccc(OC)c1CN1CCC(=O)CC1 | inactive: 8.31% |
| COc1ccc(CCN2CCC(Nc3ccc(OC)cc3)CC2)cc1 | inactive: -2.03% |
| CC(=O)N1CCN(C/C=C/c2ccccc2[N+](=O)[O-])CC1 | inactive: 3.55% |
| N#Cc1ccc(C(=O)NCC2(N3CCCCC3)CCCCC2)cc1 | inactive: -2.27% |
| c1ccc(CN2CCC(Nc3ccccc3)CC2)cc1 | inactive: 21.2% |
| CCCN1CCC(Nc2cc(OC)cc(OC)c2)CC1 | inactive: 21% |
